# Ab-14 heavy chain CDR variants: yeast mating affinities

Reference: Li et al. 2023, doi:10.1038/s41467-023-39022-2. File: FLAb, binding data.

Target peptide (SARS-CoV-2 spike, HR2 region): PDVDLGDISGINAS

Parent: Ab-14, a human scFv built as VH, a 15-residue (Gly4Ser)3 linker, VL. Only the CDRs of the heavy chain vary.
VH: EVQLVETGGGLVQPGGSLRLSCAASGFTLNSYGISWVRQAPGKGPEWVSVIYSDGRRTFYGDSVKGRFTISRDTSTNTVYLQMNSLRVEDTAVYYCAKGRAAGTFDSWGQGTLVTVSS
VL: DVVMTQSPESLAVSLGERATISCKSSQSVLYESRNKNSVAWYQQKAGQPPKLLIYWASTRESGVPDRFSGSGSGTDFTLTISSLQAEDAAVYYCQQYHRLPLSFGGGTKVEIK

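The starting antibody came from a phage panning campaign against this peptide. Designed CDR sequences, proposed from the first random library and measured here. Several design methods are mixed in this list. AlphaSeq pools MATa yeast showing the antibodies with MATalpha yeast showing the peptide. Binding brings cells together so that they mate, and sequencing counts the barcode pairs among the diploids. The ratio of observed to expected reads was calibrated, replicate by replicate, on BCL2-family standards whose Kd was known from biolayer interferometry. There are six technical replicates.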

The parent's heavy chain CDRs are GFTLNSYGIS, VIYSDGRRTFYGDSVK, GRAAGTFDS; each variant's own CDRs replace them letter for letter.
Affinities are written as log10 Kd with Kd in nM; a lower number is a better binder.
"ND" marks a missing value. The strain was present, yet no cells mated with the target were sequenced in that replicate, which points to weak or no binding.
The parent sequence was in this pool as ten entries: three were never detected, three once, and four in most replicates, with averages from 0.34 to 2.37.
Empty control strains, which show no peptide, gave a signal in 1% of pairings with all heavy chain designs; the median was 2.08 and 95% of these signals were weaker than 0.84. No background was subtracted. Also given: how often the same scFv was detected with the empty control strains.
Values of this round are not directly comparable with the first-round values of the same sequences.
The authors' rule: three or more of the six replicates give a measured affinity, fewer mean a poor binder.
Where one sequence has several entries in the source, the replicates are listed entry by entry, parted by semicolons.

GFDLNEYGIS / VIYSDGRRTFYGDSVK / GRAAVTFDQ: ND, ND, 2.20, ND, ND, 2.82 (controls 2 of 18).
GFDLNEYGIS / VIYADGKRTAYADSVK / GNVAGTFDM: -0.08, -0.40, -0.32, -0.26, -0.41, 0.02 (controls 0 of 18).
GFNLNEYGIS / VIYADGNRNAYADSFK / GLHANFFAI: ND, ND, ND, ND, ND, ND (controls 0 of 18).
GFTLNSYGIS / VIYSDGRRTFYQDSVK / GRVAGQFDS: ND, ND, ND, ND, ND, ND (controls 0 of 18).
GFTLNSYGIS / VIYSDGRRTFYGDSVK / GRKAGTFNS: ND, ND, ND, ND, ND, ND (controls 1 of 18).
GFTLNSYGIS / VIYSDGQRTWYGDSVK / GRAAGTFDS: 1.75, ND, ND, ND, ND, 1.75 (controls 0 of 18).
RFTLNSYGIS / VIYSDGRRTAYGDSVK / GIAAGTGDS: ND, ND, ND, ND, ND, ND (controls 0 of 18).
GFNLNSYGIS / VIYSDGRRTFYGDQVK / GRIAGTFDS: 1.25, 0.88, 0.81, 0.96, 1.33, 1.09 (controls 1 of 18).
GFNLNEYGIS / VIYADGRRTFYADSVK / GEAAGTFDM: ND, ND, ND, ND, ND, ND (controls 0 of 18).
GFTLNSYGIS / VIYSDGRRTFYGDSVK / GRIAGTFDS: ND, ND, ND, ND, ND, ND; ND, ND, 0.30, ND, ND, ND (controls 0 of 36).
GFTLDSYGIS / VIYSDGRRTFYDDSVK / GRAAGTFDS: ND, 2.49, 0.56, 0.91, 0.61, 1.76 (controls 1 of 18).
GFGLNEYGIS / VIYSDGRRTFYGDSVK / GRTAGTFDS: 0.38, 0.02, 0.27, 0.08, 0.04, 0.09 (controls 0 of 18).
GFTLESYGIS / VIYSDGRRTFYIDSVK / GQGAGTFDS: ND, ND, ND, ND, ND, ND (controls 0 of 18).
GFQLNMYGIS / VIYSDGRRTQYIDSVK / GRAAGTFDS: 0.17, ND, 1.57, ND, ND, ND (controls 0 of 18).
CFTLNEYGIS / VIYSDGRRTFYTDSVK / GRFAGTFDS: ND, ND, ND, ND, ND, ND (controls 0 of 18).
GFGLNEYGIS / VIYADGQRKFYADNVK / GVFGEDGQV: ND, ND, ND, ND, ND, ND (controls 0 of 18).
GFDLDEYGIS / VIYADGQRTAYSDSVK / GENAGTFDM: 0.47, 0.51, -0.24, -0.45, -0.30, 0.53 (controls 1 of 18).
GFSLDEYGIS / VIYADGARAFYTNKVK / GVTVGDNGT: ND, ND, ND, ND, ND, ND (controls 1 of 18).
GFELNEYGIS / VIYSDGRRTFYGDSVK / GRNAGTFDD: ND, 0.15, 0.44, 0.47, 0.45, ND (controls 0 of 18).
GFDLNEYGIS / VIYADGRRTAYADSVK / GNVAGTFNV: -0.35, -0.09, -0.61, -0.57, -0.65, -0.31 (controls 1 of 18).
GFDLNSYGIS / VIYSDGRRTFYADSVK / GKTAGTFDC: ND, ND, ND, ND, 1.06, ND (controls 0 of 18).
GFDLNEYGIS / VIYADGMRTAYIDSVK / GEVAGTFDA: -1.19, -0.37, -0.79, -1.36, -0.64, -0.99 (controls 0 of 18).
GFDLDEYGIS / VIYADGKRTFYADSVK / GNVAGTFDQ: -0.51, -0.58, -0.68, -0.83, -0.67, -0.80 (controls 1 of 18).
GFDLNEYGIS / VIYADGMRTAYTDDVK / GEVAGTFDV: 0.44, -0.22, -0.18, -0.74, -0.34, -0.15 (controls 0 of 18).
GFTLNSPGIS / VIYSDGRRTFYSDDVK / GRAGGTFDS: ND, ND, ND, ND, ND, ND (controls 1 of 18).
GFTLNSYGIS / VIYSDGRRTFYHDSVK / GRAAGTFDH: ND, 1.11, ND, 1.99, ND, 2.20 (controls 0 of 18).
GTTLNSYGIS / VIYSDGRRTFYMDSVK / GQVTGTFNS: ND, ND, ND, ND, ND, ND (controls 0 of 18).
GFDLNEYGIS / VIYADGRRTSYADSVK / GNVAGTFDV: -0.20, -0.34, -0.10, -0.50, -0.12, -0.32 (controls 0 of 18).
GNTLNDYGIS / VIYSDGRRTFYTDSVK / GRCAGTFDS: ND, ND, ND, ND, ND, ND (controls 0 of 18).
GFSLDEYGIS / VIYADGNRSAYIDAVK / GNYGSDFNE: ND, ND, ND, ND, ND, ND (controls 0 of 18).
LFTLNEYGIS / VIYSDGRRTFYEDSVK / GRTAGTFDS: 1.86, ND, 2.17, 1.49, 1.54, 2.16 (controls 0 of 18).
GFDLNEYGIS / VIYADGMRTYYADSVK / GEVAGTFDM: -0.84, -1.12, -1.30, -1.52, -0.57, -0.42 (controls 0 of 18).
GFTLNSYGIS / VIYSDGRRTNYDDSVK / GQEAGFFDS: ND, ND, ND, ND, ND, ND (controls 0 of 18).